The values below come from patent US20260001928A1 (CORTERIA PHARMACEUTICALS, priority 2022, published 2026).

In the experiment the test system is human LAD2 cells. It is filed as cell-based. Conditions: 30 min, β-hexosaminidase release, read-out: Mast Cell Degranulation (MCD) EC50. On the procedure: LAD2 cells (20000 cells/well, 96-well plates and 10,000 cells/well in 384-well plates) were incubated with compounds for 30 min. The R-hexosaminidase released into the supernatants and in cell lysates was quantified using the fluorogenic substrate 4-methylumbelliferyl-N-acetyl-b-D-glucosaminide.
On the day of the assay, the lyophilized peptides were dissolved in DMSO and/or PBS 1× pH 7.4, to obtain stock solutions. The stock solutions were used to prepare working serial dilutions to have final concentrations in assay ranging from 50, 100 or 300 to 0.1 or 0.001 μM. Each peptide was tested in biological duplicates. When compounds were dissolved in DMSO, the final solvent concentration in assay was 0.5% (v/v).
The percentage of degranulation, expressed as % of R-hexosaminidase release, was calculated by dividing the fluorescence signal of the supernatant by the sum of the signals from the supernatant and cell pellet (lysed with Triton X-100, final 1%) and multiplying by 100.
Dose-response curves were generated by plotting the % of R-hexosaminidase release versus total release of cells treated with triton (y-axis) against the concentrations of peptides tested (x-axis). The Mast Cell Degranulation (MCD) EC50 values and standard errors were calculated using XLfit 5.5.0.5 based on the following equation:
4 Parameter Sigmoidal Model: f=(A+((B−A)/(1+((C/x)^D)))) […]

A word on the EC50: it is the midpoint of the concentration-response curve. As for `CSCC[C@H](NC(=O)[C@H](CC(C)C)NC(=O)CNC(=O)[C@H](Cc1ccccc1)NC(=O)[C@H](Cc1ccccc1)NC(=O)[C@H](CCC(N)=O)NC(=O)[C@H](CCC(N)=O)NC(=O)[C@@H]1CCCN1C(=O)[C@H](CCCCN)NC(=O)[C@@H]1CCCN1C(=O)[C@@H](N)CCCNC(=N)N)C(N)=O` [Substance P, reference compound], the EC50 stood at 360 nM.
